Amino acid sequences for entries named in this document (tags omitted). A change or cut given only in a name is not applied to a line headed by its entry.
UniProt P18090, whole entry, looked up: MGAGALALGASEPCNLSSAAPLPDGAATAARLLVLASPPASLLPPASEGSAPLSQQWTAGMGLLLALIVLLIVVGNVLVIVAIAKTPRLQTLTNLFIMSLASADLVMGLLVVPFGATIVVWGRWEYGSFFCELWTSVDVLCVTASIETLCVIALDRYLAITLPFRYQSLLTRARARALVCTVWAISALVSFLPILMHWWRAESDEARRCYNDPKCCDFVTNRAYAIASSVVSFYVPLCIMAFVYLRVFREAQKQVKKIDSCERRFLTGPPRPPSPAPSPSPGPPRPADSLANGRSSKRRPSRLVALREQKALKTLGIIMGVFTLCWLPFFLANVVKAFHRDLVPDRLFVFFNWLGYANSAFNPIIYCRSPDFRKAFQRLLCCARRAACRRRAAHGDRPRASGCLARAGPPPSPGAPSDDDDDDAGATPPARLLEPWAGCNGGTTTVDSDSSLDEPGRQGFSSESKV
UniProt P10608, whole entry, looked up: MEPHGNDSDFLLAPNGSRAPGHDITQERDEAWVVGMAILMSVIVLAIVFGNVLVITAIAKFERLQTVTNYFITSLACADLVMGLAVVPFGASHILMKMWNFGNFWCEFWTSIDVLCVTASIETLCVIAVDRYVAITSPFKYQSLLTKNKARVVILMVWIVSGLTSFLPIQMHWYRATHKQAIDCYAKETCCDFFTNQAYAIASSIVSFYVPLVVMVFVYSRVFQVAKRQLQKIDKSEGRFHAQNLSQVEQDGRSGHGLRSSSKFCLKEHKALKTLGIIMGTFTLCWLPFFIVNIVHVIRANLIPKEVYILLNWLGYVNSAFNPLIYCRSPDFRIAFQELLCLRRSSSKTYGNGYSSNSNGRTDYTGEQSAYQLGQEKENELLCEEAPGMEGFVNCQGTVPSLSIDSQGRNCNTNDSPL
UniProt P26255: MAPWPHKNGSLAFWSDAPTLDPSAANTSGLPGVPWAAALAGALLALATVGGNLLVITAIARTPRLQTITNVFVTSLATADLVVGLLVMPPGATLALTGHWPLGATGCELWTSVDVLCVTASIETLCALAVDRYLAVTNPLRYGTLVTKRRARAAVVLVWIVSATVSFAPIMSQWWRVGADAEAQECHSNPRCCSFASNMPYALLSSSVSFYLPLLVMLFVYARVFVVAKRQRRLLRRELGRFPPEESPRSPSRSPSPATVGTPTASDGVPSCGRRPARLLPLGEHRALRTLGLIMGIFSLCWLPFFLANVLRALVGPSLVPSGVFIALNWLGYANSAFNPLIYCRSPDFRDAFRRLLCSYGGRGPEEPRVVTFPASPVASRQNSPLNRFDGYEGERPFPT
UniProt P15823: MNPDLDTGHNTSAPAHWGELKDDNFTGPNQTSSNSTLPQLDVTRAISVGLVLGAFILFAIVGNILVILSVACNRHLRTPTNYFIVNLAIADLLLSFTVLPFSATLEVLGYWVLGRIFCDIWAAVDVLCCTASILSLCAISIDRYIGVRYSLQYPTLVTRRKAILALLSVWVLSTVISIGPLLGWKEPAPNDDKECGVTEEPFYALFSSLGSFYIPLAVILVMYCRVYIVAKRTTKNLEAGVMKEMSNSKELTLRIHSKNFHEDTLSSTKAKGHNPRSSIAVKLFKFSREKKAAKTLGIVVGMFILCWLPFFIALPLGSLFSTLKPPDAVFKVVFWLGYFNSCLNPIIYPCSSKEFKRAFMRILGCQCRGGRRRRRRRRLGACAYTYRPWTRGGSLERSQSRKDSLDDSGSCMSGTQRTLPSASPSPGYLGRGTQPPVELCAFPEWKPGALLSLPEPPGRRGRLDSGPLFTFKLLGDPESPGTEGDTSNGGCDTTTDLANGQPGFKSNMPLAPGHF
UniProt P23944: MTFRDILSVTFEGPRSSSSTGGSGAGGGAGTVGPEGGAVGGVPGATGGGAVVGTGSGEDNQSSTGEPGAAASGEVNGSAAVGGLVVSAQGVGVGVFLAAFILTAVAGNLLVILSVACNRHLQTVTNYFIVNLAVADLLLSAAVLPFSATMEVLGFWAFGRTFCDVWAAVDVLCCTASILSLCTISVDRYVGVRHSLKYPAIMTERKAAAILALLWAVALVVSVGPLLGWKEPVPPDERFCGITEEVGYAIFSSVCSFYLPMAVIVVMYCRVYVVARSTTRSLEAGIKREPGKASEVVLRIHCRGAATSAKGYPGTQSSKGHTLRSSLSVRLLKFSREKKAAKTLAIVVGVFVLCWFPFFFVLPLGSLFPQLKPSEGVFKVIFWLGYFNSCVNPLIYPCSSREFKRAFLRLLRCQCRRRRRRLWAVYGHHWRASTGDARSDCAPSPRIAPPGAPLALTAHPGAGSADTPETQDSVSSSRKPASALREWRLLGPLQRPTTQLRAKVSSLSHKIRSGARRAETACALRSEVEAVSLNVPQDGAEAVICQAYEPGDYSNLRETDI
UniProt P43140: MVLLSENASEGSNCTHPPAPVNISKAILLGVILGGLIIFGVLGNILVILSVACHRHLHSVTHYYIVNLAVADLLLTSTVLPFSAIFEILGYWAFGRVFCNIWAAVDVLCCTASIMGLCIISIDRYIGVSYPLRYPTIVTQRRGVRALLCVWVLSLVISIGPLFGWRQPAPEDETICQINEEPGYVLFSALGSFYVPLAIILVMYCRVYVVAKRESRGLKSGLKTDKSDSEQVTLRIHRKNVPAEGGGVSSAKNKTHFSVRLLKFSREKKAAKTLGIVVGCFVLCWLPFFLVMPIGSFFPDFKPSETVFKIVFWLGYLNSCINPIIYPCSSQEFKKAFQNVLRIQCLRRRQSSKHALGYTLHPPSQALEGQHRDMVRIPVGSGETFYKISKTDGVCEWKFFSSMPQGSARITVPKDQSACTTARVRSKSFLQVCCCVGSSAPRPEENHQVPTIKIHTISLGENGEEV
UniProt P22086: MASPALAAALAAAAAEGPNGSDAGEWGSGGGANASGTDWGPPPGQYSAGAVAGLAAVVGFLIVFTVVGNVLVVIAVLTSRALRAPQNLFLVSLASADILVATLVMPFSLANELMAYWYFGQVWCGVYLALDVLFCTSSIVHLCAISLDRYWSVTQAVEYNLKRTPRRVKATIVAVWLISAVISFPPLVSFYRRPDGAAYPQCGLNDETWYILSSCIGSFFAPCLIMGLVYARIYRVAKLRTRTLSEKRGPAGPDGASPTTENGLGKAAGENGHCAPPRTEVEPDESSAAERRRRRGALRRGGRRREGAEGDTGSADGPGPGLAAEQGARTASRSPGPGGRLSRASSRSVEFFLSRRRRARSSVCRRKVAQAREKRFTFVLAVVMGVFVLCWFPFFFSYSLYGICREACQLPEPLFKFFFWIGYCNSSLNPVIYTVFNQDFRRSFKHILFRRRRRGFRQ
UniProt P19328: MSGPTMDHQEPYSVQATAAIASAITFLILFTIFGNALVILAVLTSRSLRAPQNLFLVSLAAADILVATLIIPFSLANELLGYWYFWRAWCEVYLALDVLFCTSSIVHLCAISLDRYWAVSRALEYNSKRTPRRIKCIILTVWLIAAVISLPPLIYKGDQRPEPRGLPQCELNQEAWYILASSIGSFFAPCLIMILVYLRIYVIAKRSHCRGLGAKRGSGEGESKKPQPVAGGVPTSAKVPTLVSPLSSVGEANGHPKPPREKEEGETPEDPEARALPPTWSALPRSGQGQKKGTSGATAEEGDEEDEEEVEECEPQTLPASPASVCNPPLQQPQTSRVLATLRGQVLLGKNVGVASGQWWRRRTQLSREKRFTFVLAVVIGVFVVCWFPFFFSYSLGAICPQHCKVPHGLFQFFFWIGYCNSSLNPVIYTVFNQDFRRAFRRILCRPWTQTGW
UniProt P22909: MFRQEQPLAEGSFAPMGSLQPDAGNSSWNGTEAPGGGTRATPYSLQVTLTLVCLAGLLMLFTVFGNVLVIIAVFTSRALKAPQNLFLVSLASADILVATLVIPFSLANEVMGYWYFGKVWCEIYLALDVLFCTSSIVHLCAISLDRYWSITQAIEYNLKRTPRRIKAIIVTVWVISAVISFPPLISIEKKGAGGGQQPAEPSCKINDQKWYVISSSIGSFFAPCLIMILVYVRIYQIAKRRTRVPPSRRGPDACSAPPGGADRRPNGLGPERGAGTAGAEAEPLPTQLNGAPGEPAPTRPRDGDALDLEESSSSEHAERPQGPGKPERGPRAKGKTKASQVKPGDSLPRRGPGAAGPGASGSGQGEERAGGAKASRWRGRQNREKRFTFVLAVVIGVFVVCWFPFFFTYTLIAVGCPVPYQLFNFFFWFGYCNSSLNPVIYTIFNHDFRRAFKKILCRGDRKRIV

In ChEMBL document CHEMBL1121735, “Synthesis and adrenoceptor affinity of some highly polar beta-substituted catecholamines” (J Med Chem, 1981):

Tests used:
[1] = target: Adrenergic receptor beta (Rattus norvegicus) (UniProt P18090+P10608+P26255); experiment: Relative affinity for Beta adrenergic receptor; format: protein assay
[2] = target: Adrenergic receptor alpha (Rattus norvegicus) (UniProt P15823+P23944+P43140+P22086+P19328+P22909); experiment: Relative affinity for Alpha adrenergic receptor; format: protein assay

Relative affinity [1] | Relative affinity [2] | SMILES
0.026 | 0.17 | CNCC(c1ccc(O)c(O)c1)S(=O)(=O)O (racemic)
0.022 | 0.47 | NCC(c1ccc(O)c(O)c1)S(=O)(=O)O (racemic)
0.32 | 0.052 | CC(C)NCC(c1ccc(O)c(O)c1)S(=O)(=O)O (racemic)
